Test results as given in patent US8080632B2, “Peptide mimics of melanocyte stimulating hormone” (The Feinstein Institute for Medical Research, priority 2005, dated 2011).

Assay: Stability in vivo

Question: Which stability in vivo does the source give for `CC[C@H](C)[C@H](NC(=O)[C@@H](NC(=O)[C@H](C)NC(=O)[C@H](CCC(N)=O)NC(=O)[C@H](C)NC(=O)[C@@H](NC(=O)[C@H](CC(N)=O)NC(=O)[C@H](CO)NC(=O)[C@@H]1CCCN1C(=O)[C@H](C)NC(=O)[C@H](CCC(=O)O)NC(=O)[C@H](CC(=O)O)NC(=O)[C@H](Cc1ccc(O)cc1)NC(=O)[C@H](CCCCN)NC(=O)[C@H](CC(C)C)NC(=O)[C@H](Cc1ccccc1)NC(=O)[C@H](CCC(=O)O)NC(=O)[C@H](CCSC)NC(=O)[C@@H](NC(=O)[C@H](Cc1ccc(O)cc1)NC(=O)[C@H](CO)NC(=O)[C@H](C)NC(=O)[C@H](CCCNC(=N)N)NC(=O)CNC(=O)[C@H](CCCCN)NC(=O)[C@@H](NC(=O)[C@H](CC(C)C)NC(=O)[C@@H](N)CO)[C@@H](C)O)[C@@H](C)O)C(C)C)C(C)C)C(=O)N[C@@H](CCC(=O)O)C(=O)N[C@@H](C)C(=O)N[C@@H](CCCNC(=N)N)C(=O)NCC(=O)N[C@@H](CCCCN)C(=O)O` here?
Answer: quite stable in vivo
